Source: PubChem BioAssay AID651965 (National Center for Advancing Translational Sciences (NCATS), 2013)
The entries are a selection whose mix differs from that of the whole data set. Records with an inconclusive call do not appear. Activity calls are given as the source filed them. Calls come from the whole dose curve; as a rule, active = well fitted falling curve with a large enough effect; inconclusive = small, poorly fitted or top-dose-only effect; inactive = no such curve, though single readings can be large or run the other way.

Protein sequences, listed by entry. Tags and fused reporters are not part of them. Lines headed by an entry give the natural chain unless they say otherwise; changes in a name come on top.
UniProt P80244: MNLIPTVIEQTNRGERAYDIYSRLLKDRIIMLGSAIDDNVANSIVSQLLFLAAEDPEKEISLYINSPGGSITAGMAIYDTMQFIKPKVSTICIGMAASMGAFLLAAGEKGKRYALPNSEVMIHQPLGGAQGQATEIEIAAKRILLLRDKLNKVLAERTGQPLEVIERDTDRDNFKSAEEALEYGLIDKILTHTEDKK

Target: ATP-dependent Clp protease proteolytic subunit (Bacillus subtilis (strain 168)) (UniProt P80244)
Test: qHTS Assay for Activators of ClpP; note: the source files actives as falling curves though it sought activators and does not explain the sign; nearly all actives have a fitted effect of over 65% in size
Conditions: purified B. subtilis ClpP, FRET peptide cleavage, 20 min
Text: The Clp protease proteolytic subunit (ClpP) is the core unit of the Clp complex belonging to the peptidase family S14 that hydrolyzes protein into small peptides in the presence of ATP and magnesium. It is ubiquitously expressed and is the major protease in bacteria. […] Unlike common antibiotics that simply interfere with the essential enzyme activity, ADEP binding activates the ClpP core in the absence of the regulatory Clp-ATPases leading to uncontrolled proteolysis and eventually cell death. Activators binding to the docking site on ClpP can also block formation of the ClpXP and ClpA/C-P holoenzyme complexes interfering with the normal biological functions of ClpP and thus have the potential to become new anti-microbials.
To identify activators of ClpP, a FRET based quenching reversal assay was developed using a purified B. subtilis ClpP and a decapeptide substrate (FRET-FV). The FRET-FV is tagged with a fluorescent molecule amino benzoic acid (donor) at the N-terminus and a nitrotyrosine quencher (acceptor) at the C-terminus. FRET-FV cleaves upon activation of ClpP with ADEP treatement and reverses the quenching effect of the nitrotyrosine causing an increase in fluorescence emission signal at 430nm. This assay was used to screen the Molecular Libraries Small Molecule Repository (MLSMR).
NIH Molecular Libraries Probe Production Centers Network [MLPCN]
NIH Chemical Genomics Center [NCGC]
Assay Submitter (PI): Michael Maurizi, National Cancer Institute
Two and a half microL/well of purified enzyme solution (final concentrations 10 microg/mL B. subtilis ClpP in 100 mM Tris/HCl pH8, 100 mM KCl, 0.05% low protease BSA, 2.5% glycerol, 0.01% Tween-20 buffer) was dispensed into 1536-well assay plates (Greiner, black solid, medium-binding plates) with Aurora Discovery BioRAPTR Flying Reagent Dispenser (FRD, Beckton-Dickenson). Compound solution (23 nL) was transferred to the assay plate using Kalypsys pin tool equipped with a 1536-pin tool. […] FRET signals at time 0 and after 20 min room temperature incubation were obtained using the PerkinElmer Envision plate reader with 320nm excitation and 430nm emission filters. Delta FRET value (Time 20 - Time 0) was calculated and normalized to the delta FRET value of positive control ADEP (5.8 microM final concentration) and negative control DMSO and no enzyme wells.

Potency, active:
Cc1ccc(S(=O)(=O)Nc2ccc(-c3nc4ccc(C)cc4s3)cc2)cc1 4.47 µM, COC(=O)Cc1c[nH]c2cccc(OCC(O)CN(Cc3ccccc3)C(C)C)c12 (centres undefined) 28.2 µM, CC[n+]1c(/C=C/N(C)c2ccccc2)oc2ccccc21 22.4 µM, CC1=NC(C)(C)Cc2ccccc21 28.2 µM
